Experimental data as given in EP0771564A1, “INTERLEUKIN-5 PRODUCTION INHIBITOR” (TAISHO PHARMACEUTICAL CO. LTD, priority 1994, dated 1996).

System: ICR male mice
Assay: Oral administration safety test in mice (mortality)
Assay type: in vivo
Conditions: orally administered to ICR male mice, dose level of 100 mg/kg
Excerpt: The compounds of Examples 1 and 2 were orally administered to ICR male mice grouped in fives.

With “3-O-(4-Biphenyl)acetyl-5-O-desosaminyl-6-O-methylerythronolide A 11,12-Cyclic Carbonate [Compound of Example 1]” the death was “No death was observed”.
